Values joined by “and” are separate entries in the source; they are usually repeats but may differ in a detail not shown here. Equal values may be shown once. Where a name gives a salt, the structure may show the parent alone. Read-outs that look alike come from different tables or passages of the source.
Experiments:
ACK1 = ACK1 (Homo sapiens, UniProt Q07912); assay: ACK1 ELISA: phosphorylation of AKT-derived peptide; type: biochemical
AR = AR protein levels in androgen-deprived prostate cancer cells, immunoblotting; type: cell-based, human; details: immunoblotting (FIG. 2)

Protein sequences, listed by entry. Tags and fused reporters are not part of them. Lines headed by an entry give the natural chain unless they say otherwise; changes in a name come on top.
UniProt Q07912: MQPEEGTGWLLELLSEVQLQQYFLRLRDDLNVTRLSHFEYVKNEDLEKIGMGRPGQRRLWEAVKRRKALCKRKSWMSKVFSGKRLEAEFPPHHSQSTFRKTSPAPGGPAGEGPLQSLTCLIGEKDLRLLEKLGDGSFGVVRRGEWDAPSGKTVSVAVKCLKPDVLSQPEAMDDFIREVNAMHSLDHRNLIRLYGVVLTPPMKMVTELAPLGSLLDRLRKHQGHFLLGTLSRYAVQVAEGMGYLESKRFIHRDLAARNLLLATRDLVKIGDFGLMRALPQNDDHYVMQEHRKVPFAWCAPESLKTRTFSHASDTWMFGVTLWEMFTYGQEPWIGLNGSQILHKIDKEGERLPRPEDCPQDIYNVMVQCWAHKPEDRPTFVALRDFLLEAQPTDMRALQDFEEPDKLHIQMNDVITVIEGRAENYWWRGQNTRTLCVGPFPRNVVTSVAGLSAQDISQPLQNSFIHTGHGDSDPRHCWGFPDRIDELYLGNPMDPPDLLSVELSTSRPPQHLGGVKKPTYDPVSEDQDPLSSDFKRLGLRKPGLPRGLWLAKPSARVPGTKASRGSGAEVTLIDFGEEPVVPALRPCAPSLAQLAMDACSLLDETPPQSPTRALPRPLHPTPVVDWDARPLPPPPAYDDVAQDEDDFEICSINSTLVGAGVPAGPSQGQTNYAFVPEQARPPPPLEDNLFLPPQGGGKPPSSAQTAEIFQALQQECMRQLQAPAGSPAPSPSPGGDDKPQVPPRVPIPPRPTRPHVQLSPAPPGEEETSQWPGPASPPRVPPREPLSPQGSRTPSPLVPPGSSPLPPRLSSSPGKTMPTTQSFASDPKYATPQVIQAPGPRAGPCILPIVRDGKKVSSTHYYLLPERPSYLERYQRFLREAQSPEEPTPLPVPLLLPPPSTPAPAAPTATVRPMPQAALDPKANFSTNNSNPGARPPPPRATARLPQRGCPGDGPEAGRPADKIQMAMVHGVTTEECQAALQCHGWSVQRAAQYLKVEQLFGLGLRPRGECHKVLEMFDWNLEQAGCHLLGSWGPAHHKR

Brc1cnc(Nc2ccc(N3CCNCC3)cc2)nc1NCC1CCCO1 (centres unmarked) [Compound 9i]
inhibition at 10 µM (ACK1; read-out: % Inhibition @ 10 μM (ELISA), 10 μM, Table 2, library 9): 85.5 ± 0.7%

CNC(=O)c1ccc(N2C(=S)N(c3ccc(C#N)c(C(F)(F)F)c3)C(=O)C2(C)C)cc1F [Enzalutamide]
AR protein levels (AR): little effect on AR expression

COc1cc(N2CCC(N3CCN(C)CC3)CC2)ccc1Nc1ncc(Cl)c(Nc2ccccc2S(=O)(=O)C(C)C)n1 [TAE684, reference compound]
% Inhibition at 10 μM (ELISA) (ACK1; Table 1, replicate values listed): 92% and 98% and 99% (2×)

Brc1cnc(Nc2ccc(N3CCNCC3)cc2)nc1NCC1CCCO1 (centres unmarked) [YL9-167, 5-Bromo-N2-(4-(piperazin-1-yl)phenyl)-N4-((tetrahydrofuran-2-yl)methyl)pyrimidine-2,4-diamine TFA salt]
% Inhibition at 10 μM (ELISA) (ACK1; Table 1, replicate values listed, TFA salt): 85%
inhibition at 10 µM (ACK1; read-out: % Inhibition at 10 μM (ELISA), 10 μM, Table 1, replicate values listed): 86%
